Experimental data as given in US9353090B2, “Heterocyclic carboxylic acids as activators of soluble guanylate cyclase” (Boehringer Ingelheim International GmbH, priority 2014, dated 2016).

Amino acid sequences for entries named in this document (tags omitted).
UniProt Q02153, whole entry: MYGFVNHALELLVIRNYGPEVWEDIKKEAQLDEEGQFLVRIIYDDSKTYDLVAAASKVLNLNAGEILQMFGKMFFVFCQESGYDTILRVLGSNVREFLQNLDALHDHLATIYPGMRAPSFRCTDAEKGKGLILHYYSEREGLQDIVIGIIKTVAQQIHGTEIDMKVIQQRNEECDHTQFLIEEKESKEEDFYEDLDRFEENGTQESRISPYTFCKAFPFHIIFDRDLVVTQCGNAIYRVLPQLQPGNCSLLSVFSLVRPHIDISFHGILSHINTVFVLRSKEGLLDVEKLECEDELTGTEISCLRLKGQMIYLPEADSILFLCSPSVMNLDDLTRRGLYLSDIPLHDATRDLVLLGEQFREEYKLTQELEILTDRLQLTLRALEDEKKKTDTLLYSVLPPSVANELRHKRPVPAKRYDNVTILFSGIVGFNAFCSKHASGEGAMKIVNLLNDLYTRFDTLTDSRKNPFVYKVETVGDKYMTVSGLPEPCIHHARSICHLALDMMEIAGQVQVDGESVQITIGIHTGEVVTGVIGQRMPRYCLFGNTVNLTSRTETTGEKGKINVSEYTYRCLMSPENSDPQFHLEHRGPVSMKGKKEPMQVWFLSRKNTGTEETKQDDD
UniProt Q02108, whole entry partner: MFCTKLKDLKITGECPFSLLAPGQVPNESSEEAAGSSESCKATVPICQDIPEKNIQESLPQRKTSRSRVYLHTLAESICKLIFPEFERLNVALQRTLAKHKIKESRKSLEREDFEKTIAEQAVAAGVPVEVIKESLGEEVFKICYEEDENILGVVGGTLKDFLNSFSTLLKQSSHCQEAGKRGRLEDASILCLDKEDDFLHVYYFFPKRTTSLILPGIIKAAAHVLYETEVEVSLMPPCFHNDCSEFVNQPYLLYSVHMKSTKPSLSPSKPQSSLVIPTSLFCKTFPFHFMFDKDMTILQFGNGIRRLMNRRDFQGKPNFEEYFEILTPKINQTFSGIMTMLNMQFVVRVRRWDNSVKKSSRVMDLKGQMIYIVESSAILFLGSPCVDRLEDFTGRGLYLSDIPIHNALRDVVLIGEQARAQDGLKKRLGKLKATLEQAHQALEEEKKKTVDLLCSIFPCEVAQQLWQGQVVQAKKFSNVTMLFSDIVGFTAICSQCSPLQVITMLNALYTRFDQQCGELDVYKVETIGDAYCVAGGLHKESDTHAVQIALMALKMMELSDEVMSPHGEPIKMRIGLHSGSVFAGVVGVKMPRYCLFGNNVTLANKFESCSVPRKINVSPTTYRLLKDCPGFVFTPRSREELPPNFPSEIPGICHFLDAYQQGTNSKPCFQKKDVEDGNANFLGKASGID

How the values were obtained:
[1] = Solubility in McIlvaine buffer at pH 2.2, 4.5 and 6.8 (24 h shaking, UPLC-UV); details: for Solubility (pH 2.2): McIlvaine buffer pH 2.2; for Solubility (pH 4.5): McIlvaine buffer pH 4.5; for Solubility (pH 6.8): McIlvaine buffer pH 6.8
Procedure: Solubility is measured by the following method.
100 uL, 10 mM DMSO stock solution of each compound is prepared in a 96 well plate format. The experiment is done in single determination at 3 pH values (2.2, 4.5 and 6.8). For each pH and one reference, 40 uL of each compound is needed.
McIlvaine pH 2.2: To 2.076 g citric acid monohydrate and 0.043 g Na2HPO4×2H2O add 100 ml deionized water
McIlvaine pH 4.5: To 1.166 g citric acid monohydrate and 1.585 g Na2HPO4×2H2O add 100 ml deionized water
McIlvaine pH 6.8: To 0.476 g citric acid monohydrate and 2.753 g Na2HPO4×2H2O add 100 ml deionized water
With a suitable liquid handling device (Multipette® or a liquid handler) 390 uL of each buffer solution and 10 uL of compound is added to each well of a 96 deep well plate. The plates are covered firmly and shaken for 24 h on an over head shaker (at 54 RPM) at room temperature. The DMSO content in the final buffer is 2.5% v/v.
After 24 h the plates are centrifuged to remove droplets on the lid before opening (for ˜5 min at 2500 RPM).
The filtration is done under vacuum with Millipore 96 well filter plate. Filtrate is collected in a deep well plate and transferred to a suitable plate for UPLC analysis.
The reference plate is prepared by adding 10 uL of compound to 390 uL of 50:50 acetonitrile/water in a 96 deep well plate and transferred to a suitable plate for UPLC analysis. Wells are checked visually for precipitation, any presence noted under comments in reported results.
The samples are measured with UPLC-UV using the chromatographic method described below.
Waters Empower®2 software is used for generating Sample Sets (according to the plate layout), Sample Set Methods and Instrument Methods.
One Sample Set comprises the methods for three 96 well plates (one reference plate and two sample plates, and includes one Sample Set Method and one Instrument Method).
3. Data Processing and Analysis
The UV chromatograms collected at 254 nm are integrated and processed.
It is assumed that the compound is completely dissolved in the reference solution (50:50 acetonitrile/water)

[2] = Human liver microsome (HLM) metabolic stability assay; details: human liver microsomes
Procedure: The 5 time point, high-throughput human liver microsome (HLM) metabolic stability assay is designed to determine in vitro compound metabolism. Compounds are incubated with HLMs at a concentration of 1 uM, at 37° C., for a total of 60 min. The percent of compound remaining at 5, 15, 30, and 60 min is used to calculate the t1/2 (min), CLint (mL/min/kg), CLh (mL/min/kg), and % Qh. The assay is based on a 96-well format and can accommodate up to 92 compounds per plate (n=1).
Using the 96-well multi-channel head, the Biomek FX, equipped with a Peltier heating block/shaker, is programmed to accomplish the following steps: • 1. Pipette 175 uL of 1.15 mg/mL microsomes into each of the 96 conical inserts (Analytical Sales and Products, catalog number 96PL05) that fit into the plate of the Peltier heating block/shaker (the incubation plate) • 2. Add 5 uL of compounds from the assay plate to the microsomes and shake the mixture at 600 rpm at 42.1° C. for 10 min (a setting of 42.1° C. on the Peltier is required for the samples to incubate at 37° C.) • 3. After 10 min, prompt the user to add the NADPH plate to the deck and add 20 uL from the NADPH plate to the incubation plate to start the reaction • 4. […]
The plates are analyzed using LC/MS/MS with electron spray ionization (ESI) and the previously determined MRM transitions. […]

[3] = molecular target: human soluble guanylate cyclase alpha 1 and beta 1 subunits (sGC) (Homo sapiens (Human), UniProt Q02153); assay: sGC cellular activator assay (cGMP, HTRF), in the presence and absence of 50% human serum; details: CHO cells stably expressing human sGC alpha 1/beta 1, preincubated with 40 microM ODQ; cGMP by HTRF; Table 2 does not state whether with or without 50% human serum
Procedure: The sGC cellular activator assay is performed in the presence and absence of 50% human serum (HS) using Chinese hamster ovary cells that have been stably transfected to express the human soluble guanylate cyclase alpha 1 and beta 1 subunits (sGC). Cells are preincubated with 40 microM 1H-[1,2,4]oxadiazolo[4,3-a]quinoxalin-1-one (ODQ), an sGC inhibitor, for one h in buffer containing 0.1% bovine serum albumin and 3-isobutyl-1-methylxanthine (IBMX). Concentration response curves are prepared for test compounds in DMSO. An intermediate dilution of the compounds is performed in either buffer containing IBMX or type AB HS containing IBMX. Diluted compounds are added to cells and they are incubated at room temperature for thirty min. cGMP is measured using a CisBio homogeneous time resolved fluorescence kit and the EC50 is calculated for each compound.
Representative compounds of the present invention were tested for activity the above assay. Preferred compounds have an EC50 of <1,000 nM in the above assay and more preferred compounds have an EC50<200 nM.

| Compound | Solubility (pH 2.2) [1] [μg/mL] | Solubility (pH 4.5) [1] [μg/mL] | Solubility (pH 6.8) [1] [μg/mL] | Metabolic stability (Qh %), % hepatic blood flow [2] [%] | EC50 [3] [nM] |
| --- | --- | --- | --- | --- | --- |
| Cc1ccc(OCc2ccc3c(c2C)CCN(C2COC2)CC3)c(-c2csc(N3CC[C@@]4(C(=O)O)C[C@H]4C3)n2)c1 | 140 | 15 | 1.9 | 33 | 10 |
| CO[C@@H]1CN(c2nc(-c3cc(F)cc(C)c3OCc3ccc4c(c3)[C@@H](C)CN(C3COC3)CC4)cs2)CC[C@@H]1C(=O)O | 112.6 | 48.0 | 64.9 | 69 | 5 |
